Measured values from patent US12544374B2, “AZA-quinoline compounds and uses thereof” (Novartis AG, priority 2019, dated 2026).

By UniProt entry, the sequences of proteins in these tests, tags left out.
UniProt Q15910, whole entry: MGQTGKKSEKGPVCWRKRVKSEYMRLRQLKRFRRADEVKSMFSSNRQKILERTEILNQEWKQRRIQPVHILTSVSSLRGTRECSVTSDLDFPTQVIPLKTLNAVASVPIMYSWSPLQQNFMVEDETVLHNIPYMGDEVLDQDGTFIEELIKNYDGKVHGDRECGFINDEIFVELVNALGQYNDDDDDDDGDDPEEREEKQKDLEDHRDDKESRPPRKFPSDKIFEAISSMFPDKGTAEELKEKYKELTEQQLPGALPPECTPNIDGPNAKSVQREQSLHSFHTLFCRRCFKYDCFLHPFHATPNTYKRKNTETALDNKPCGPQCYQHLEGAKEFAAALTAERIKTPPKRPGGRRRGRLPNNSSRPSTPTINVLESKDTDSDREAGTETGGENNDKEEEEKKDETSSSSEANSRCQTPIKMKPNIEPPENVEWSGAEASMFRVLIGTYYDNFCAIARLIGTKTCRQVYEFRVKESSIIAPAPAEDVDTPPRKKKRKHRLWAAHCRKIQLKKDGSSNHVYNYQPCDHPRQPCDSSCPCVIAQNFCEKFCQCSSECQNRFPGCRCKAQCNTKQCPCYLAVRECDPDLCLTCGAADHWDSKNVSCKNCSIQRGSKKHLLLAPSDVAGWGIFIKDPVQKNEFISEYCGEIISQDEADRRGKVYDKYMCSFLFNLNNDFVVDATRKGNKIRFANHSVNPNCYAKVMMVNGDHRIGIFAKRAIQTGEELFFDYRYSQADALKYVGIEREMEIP
UniProt Q09028, whole entry partner: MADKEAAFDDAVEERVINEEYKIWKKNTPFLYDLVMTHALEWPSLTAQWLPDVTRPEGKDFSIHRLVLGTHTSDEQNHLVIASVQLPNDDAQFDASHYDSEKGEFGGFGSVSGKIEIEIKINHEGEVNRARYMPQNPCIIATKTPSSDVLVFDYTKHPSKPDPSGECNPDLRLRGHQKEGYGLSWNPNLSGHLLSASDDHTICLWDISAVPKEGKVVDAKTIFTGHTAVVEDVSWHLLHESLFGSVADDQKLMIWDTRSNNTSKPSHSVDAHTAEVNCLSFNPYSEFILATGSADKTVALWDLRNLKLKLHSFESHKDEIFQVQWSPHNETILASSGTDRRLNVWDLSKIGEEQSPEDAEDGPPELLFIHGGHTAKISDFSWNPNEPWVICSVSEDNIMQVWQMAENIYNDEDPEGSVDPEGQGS
UniProt Q15022, whole entry partner: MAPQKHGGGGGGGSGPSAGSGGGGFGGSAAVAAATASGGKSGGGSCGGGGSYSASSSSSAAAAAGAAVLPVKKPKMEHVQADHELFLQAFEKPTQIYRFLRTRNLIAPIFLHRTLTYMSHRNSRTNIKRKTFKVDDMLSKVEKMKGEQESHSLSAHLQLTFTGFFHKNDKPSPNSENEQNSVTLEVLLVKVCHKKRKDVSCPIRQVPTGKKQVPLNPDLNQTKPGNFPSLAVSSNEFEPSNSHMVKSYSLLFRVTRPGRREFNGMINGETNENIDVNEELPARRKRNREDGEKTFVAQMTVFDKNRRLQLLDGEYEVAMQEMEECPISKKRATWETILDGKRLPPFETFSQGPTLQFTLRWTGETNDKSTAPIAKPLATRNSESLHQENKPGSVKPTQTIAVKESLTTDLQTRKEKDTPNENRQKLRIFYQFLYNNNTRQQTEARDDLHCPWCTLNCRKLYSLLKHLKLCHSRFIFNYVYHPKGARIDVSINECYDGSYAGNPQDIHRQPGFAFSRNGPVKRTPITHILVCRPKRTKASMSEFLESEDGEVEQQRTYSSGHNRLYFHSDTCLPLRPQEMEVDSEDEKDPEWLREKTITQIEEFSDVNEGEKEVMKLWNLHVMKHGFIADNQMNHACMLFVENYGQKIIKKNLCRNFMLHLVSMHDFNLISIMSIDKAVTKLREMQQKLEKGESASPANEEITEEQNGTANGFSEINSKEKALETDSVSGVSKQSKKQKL
UniProt O75530, whole entry partner: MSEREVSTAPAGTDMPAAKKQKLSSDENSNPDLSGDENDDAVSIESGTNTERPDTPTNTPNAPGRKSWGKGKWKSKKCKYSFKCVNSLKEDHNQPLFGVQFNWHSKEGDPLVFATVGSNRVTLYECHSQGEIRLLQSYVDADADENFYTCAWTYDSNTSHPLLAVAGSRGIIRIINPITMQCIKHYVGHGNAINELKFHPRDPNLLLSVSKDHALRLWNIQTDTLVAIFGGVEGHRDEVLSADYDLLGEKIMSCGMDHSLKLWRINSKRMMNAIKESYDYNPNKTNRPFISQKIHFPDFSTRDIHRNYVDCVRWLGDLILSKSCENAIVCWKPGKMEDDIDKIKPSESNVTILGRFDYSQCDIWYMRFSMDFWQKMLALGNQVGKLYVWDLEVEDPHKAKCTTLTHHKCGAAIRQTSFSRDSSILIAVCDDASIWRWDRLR
UniProt Q6ZN18, whole entry partner: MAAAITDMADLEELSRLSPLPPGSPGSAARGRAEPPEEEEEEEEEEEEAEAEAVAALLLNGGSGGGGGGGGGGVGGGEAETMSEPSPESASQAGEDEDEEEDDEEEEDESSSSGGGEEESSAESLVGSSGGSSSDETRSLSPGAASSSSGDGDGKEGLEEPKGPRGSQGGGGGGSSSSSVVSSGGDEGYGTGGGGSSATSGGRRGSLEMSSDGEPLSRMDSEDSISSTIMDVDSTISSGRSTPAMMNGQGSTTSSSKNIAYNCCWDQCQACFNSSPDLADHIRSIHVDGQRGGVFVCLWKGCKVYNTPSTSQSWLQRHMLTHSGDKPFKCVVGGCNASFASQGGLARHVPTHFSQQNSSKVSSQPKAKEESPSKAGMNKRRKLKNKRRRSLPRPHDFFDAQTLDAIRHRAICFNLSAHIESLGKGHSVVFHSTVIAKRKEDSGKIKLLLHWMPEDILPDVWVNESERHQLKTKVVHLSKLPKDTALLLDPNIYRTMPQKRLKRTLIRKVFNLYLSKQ

How the values were obtained:
[1] = target: wild type PRC2 (wtPRC2) complex (Homo sapiens (Human), UniProt Q15910); experiment: EZH2 LC-MS assay (LC-Qualified); format: biochemical; details: read-out: EZH2 IC50 (μM) (a)
EZH2 = EZH2 (Homo sapiens (Human), UniProt Q15910); experiment: ELISA (H3K27 methylation) assay in G401 cell; format: cell-based; details: read-out: EZH2 IC50 (μM) (b), (b) ELISA Qualified assay, 48 h

Row | Compound | IC50 [1] [µM] | IC50 (EZH2) [µM]
1 | CC(C(=O)N(C)C1COC1)c1cnc(NC[C@H]2CC[C@H](Nc3ccc4ccnc(Cl)c4n3)CC2)nc1 (single isomer, unassigned) [C56 or C57 (Peak 2)] | 0.015 | 0.003
2 | O=C(NC1COC1)C(CO)c1cnc(NC[C@H]2CC[C@H](Nc3ccc4ccnc(Cl)c4n3)CC2)nc1 (single isomer, unassigned) [C73 or C74 (Peak 1)] | 0.071 | 0.229
3 | CC(C(=O)N1CC(O)C1)c1cnc(NC[C@H]2CC[C@H](Nc3ccc4ccnc(Cl)c4n3)CC2)nc1 (single isomer, unassigned) [C70 or C71 (Peak 2)] | 0.028 | 0.019
4 | CC(C(=O)N1CC(O)C1)c1cnc(NC[C@H]2CC[C@H](Nc3ccc4ccnc(Cl)c4n3)CC2)nc1 (single isomer, unassigned) [C70 or C71 (Peak 1)] | 0.217 | 0.846
5 | CC(C(=O)N(C)C1COC1)c1cnc(NC[C@H]2CC[C@H](Nc3ccc4ccnc(Cl)c4n3)CC2)nc1 (single isomer, unassigned) [C56 or C57 (Peak 1)] | 0.223 | 0.046

Other lines, results leading:

Row | IC50 [1] [µM] | IC50 (EZH2) [µM] | Compound
6 | 0.021 | 0.005 | O=C(NC1COC1)C(O)c1cnc(NC[C@H]2CC[C@H](Nc3ccc4ccnc(Cl)c4n3)CC2)nc1 (single isomer, unassigned) [C75 or C76 (Peak 2)]
7 | 0.28 | 0.557 | O=C(NC1COC1)C(O)c1cnc(NC[C@H]2CC[C@H](Nc3ccc4ccnc(Cl)c4n3)CC2)nc1 (single isomer, unassigned) [C75 or C76 (Peak 1)]
8 | 0.01 | 0.018 | O=C(NC1COC1)C(CO)c1cnc(NC[C@H]2CC[C@H](Nc3ccc4ccnc(Cl)c4n3)CC2)nc1 (single isomer, unassigned) [C73 or C74 (Peak 2)]
